According to patent US8613905B2, “Diagnostic agent” (United Arab Emirates University, priority 2007, dated 2013):
“Also recorded” adds a separate entry of the source. Like-named read-outs stand apart in the source and are kept apart here.

How the values were obtained:
[1] = for brain regions stained (summary): OR6 and 7 at higher dose than OR5
[2] = not given; remark: listed apart in the source
[3] = first mouse, 0.20 ml of 0.4 mg/ml, 0.165 μmol Gd
[4] = target: T1, Lewy Bodies (LBs) in post-mortem brain (Homo sapiens, UniProt P37840); test: Staining of post-mortem brain sections (fluorescence microscopy); type: binding; details: 0.05 mg/ml; cryostat sections of fresh frozen post-mortem PD brains; Avidin-FITC; FIG. 12B
T1 construct: aggregates of native α-synuclein in human brain lysates; from tissue; host or cells: post-mortem human brain (frontal cerebral cortex lysates of control, AD and DLB patients; PD and DLB brain sections)
Description: Binding of the peptides was investigated using 5 mm wax sections of formalin-fixed post-mortem PD and DLB brains, or cryostat sections of the fresh frozen brains. The sections were first immunostained with anti-α-synuclein antibody (MAb 211 or FL-140) as control and then compared under the microscope to successive sections incubated with the tested peptides, and peroxidase-avidin, to determine whether Lewy Bodies (LBs) in post-mortem brain are labelled by the peptides.
Brain sections were immersed in water and placed on slides, then incubated in xylene for 5 min. The xylene was exchanged, and slides incubated for a further 5 min, prior to quenching of endogenous peroxidase activity by incubation with 3% hydrogen peroxide in methanol at room temperature for 30 min. Slides were then washed with the following: 100% ethanol 5 min, 100% ethanol 5 min, 90% ethanol 5 min, 70% ethanol 5 min, formic acid 5 min, 70% ethanol 5 min, distilled water (3 changes) 5 min, PBS 5 min. The slides were incubated in blocking buffer (Vector Labs) for 90 min at 37° C., and washed in PBS for 5 min. […]
The binding of the peptides on 5 mm cryostat sections of fresh frozen post-mortem PD brains was then assessed. […] Slides were then mounted and viewed under fluorescence microscope.

[5] = 2nd mouse, 0.15 ml of 0.4 mg/ml (0.124 μmol Gd) iv, A=15 min after injection as printed
[6] = 2nd mouse, 0.15 ml of 0.4 mg/ml (0.124 μmol Gd) iv, B=before injection as printed
[7] = after injection, mouse 3, 0.150 mg (0.0618 μmol of Gd) iv
[8] = before injection, mouse 3, 0.150 mg (0.0618 μmol of Gd) iv
[9] = before injection, mouse 4, 0.050 mg (0.0206 μmol of Gd) iv
[10] = first T1 map after injection, mouse 4, 0.050 mg (0.0206 μmol of Gd) iv
[11] = second map started 55 min after injection, mouse 4, 0.050 mg (0.0206 μmol of Gd) iv

Substance: Gd-DOTA-r-Sar-vva-Sar-K(biotin)-butadiamine [OR6]
- mean T1 value, CPu, A3d (Caudate Putamen, A3d=3 days after the injection, mouse, 0.3 mg (0.18 μmmol Gd) iv): 1705
- mean T1 value, CPu, A (Caudate Putamen, A=15 min after injection, mouse, 0.3 mg (0.18 μmmol Gd) iv): 1008
- mean T1 value, CPu, B (Caudate Putamen, B=before injection, mouse, 0.3 mg (0.18 μmmol Gd) iv): 1747
- mean T1 value, DpMe, A3d (Deep Mesenchephalic nucleus, A3d=3 days after the injection, mouse, 0.3 mg (0.18 μmmol Gd) iv): 1532
- mean T1 value, DpMe, A (Deep Mesenchephalic nucleus, A=15 min after injection, mouse, 0.3 mg (0.18 μmmol Gd) iv): 940
- mean T1 value, DpMe, B (Deep Mesenchephalic nucleus, B=before injection, mouse, 0.3 mg (0.18 μmmol Gd) iv): 1630
- mean T1 value, Hippo, A3d (Hippocampus, A3d=3 days after the injection, mouse, 0.3 mg (0.18 μmmol Gd) iv): 1752
- mean T1 value, Hippo, A (Hippocampus, A=15 min after injection, mouse, 0.3 mg (0.18 μmmol Gd) iv): 1045
- mean T1 value, Hippo, B (Hippocampus, B=before injection, mouse, 0.3 mg (0.18 μmmol Gd) iv): 1771
- T1 signals 3 days after injection (mouse, 0.3 mg in 0.15 ml saline iv): recovered to normal
- change of T1 values after injection (mouse, 0.3 mg in 0.15 ml saline iv, CPu, Hippo, DpMe): decreased significantly in all regions
- brain staining 5 and 15 mins after injection ([1]; mice, iv 100 μg/100 μl): Weak but specific staining was also observed in the hypothalamus, thalamus and the periphery of the cerebellum
- brain staining 30 post-injection ([1]; mice, iv 100 μg/100 μl): the staining in the thalamus and the midbrain becomes stronger and staining was also observed in the hippocampus
- brain staining 5 mins post-injection ([1]; mice, iv 100 μg/100 μl): crossed the BBB and stained quite strongly in the midbrain
- brain staining (hippocampus, midbrain, hypothalamus) 1 hr after injection ([1]; mice, iv 100 μg/100 μl): maintained at 1 hr after injection and additionally staining was observed in the hypothalamus
- time of peak staining in the cerebellum post-injection ([1]; mice, iv 100 μg/100 μl): 30 min
- brain regions stained (summary) ([1]; normal mice, iv): preferentially stained in the hypothalamus while displaying stronger staining in the thalamus, midbrain, as well as the hippocampus

Substance: Gd-DOTA-r-Sar-vva-Sar-K(biotin)-pentadiamine [OR7]
- MRI signal after bolus injection (BBB crossing) ([2]; normal rats, iv 2 mg in 0.1 ml PBS, 0.0012 mmol of Gd, whole brain, FIG. 14B): a signal increase was detected that demonstrated that OR7 has crossed the BBB
- retention in the brain (bolus tracking) ([2]; rat, 0.0012 mmolGd and 2 mg peptide): retention of OR7 in the brain
- brain regions stained (summary) ([1]; normal mice, iv): preferentially stained in the hypothalamus while displaying stronger staining in the thalamus, midbrain, as well as the hippocampus

Substance: Gd-DOTA-r-Sar-vva-Sar-K(biotin)-rrrrrr [OR5]
- T1 value, CPu, column headed A [5]: 1930
- T1 value, DpMe, column headed A [5]: 1612
- T1 value, Hippo, column headed A [5]: 1979
- T1 value, CPu, column headed B [6]: 1894
- T1 value, DpMe, column headed B [6]: 1599
- T1 value, Hippo, column headed B [6]: 1923
- change of T1 values after injection (2nd mouse, 0.15 ml of 0.4 mg/ml, 0.124 μmol Gd, three segmented regions): slight decrease of the T1 values
- T1 value, CPu, mouse 3, A [7]: 1673
- T1 value, DpMe, mouse 3, A [7]: 1462
- T1 value, Hippo, mouse 3, A [7]: 1759
- T1 value, CPu, mouse 3, B [8]: 1694
- T1 value, DpMe, mouse 3, B [8]: 1514
- T1 value, Hippo, mouse 3, B [8]: 1783
- T1 value, CPu, mouse 4, B [9]: 1640
- T1 value, DpMe, mouse 4, B [9]: 1457
- T1 value, Hippo, mouse 4, B [9]: 1787
- T1 value, CPu, mouse 4, A1 [10]: 1627
- T1 value, DpMe, mouse 4, A1 [10]: 1460
- T1 value, Hippo, mouse 4, A1 [10]: 1786
- T1 value, CPu, mouse 4, A2 [11]: 1633
- T1 value, DpMe, mouse 4, A2 [11]: 1479
- T1 value, Hippo, mouse 4, A2 [11]: 1781
- MRI signal after bolus injection (BBB crossing) [3]: a first passage was visible after injection as well as an increase of the signal afterwards
- staining of Lewy Bodies [4]: specific staining to the LBs; also recorded: labelled
- brain staining 5 mins post-injection ([1]; mice, iv 50 μg/200 μl): weak and diffuse pattern of staining was observed across the thalamus, the midbrain and the cerebellum
- brain staining 10 mins post-injection ([1]; mice, iv 50 μg/200 μl): staining had spread into the hippocampus, the pons as well as the thalamus
- brain staining 15 mins post-injection ([1]; mice, iv 50 μg/200 μl): staining appeared in the brainstem including the midbrain and the pons, as well as the thalamus
- brain staining (brainstem, thalamus) up to 30 mins post-injection ([1]; mice, iv 50 μg/200 μl): Staining in these areas was maintained
- cerebellum staining 30 mins post-injection ([1]; mice, iv 50 μg/200 μl): spread across the entire cerebellar regions including its interior
- staining / clearance in the cerebellum at 1 hr post-injection ([1]; normal mice, iv): might be getting cleared from the cerebellum after 1 hr
- brain regions stained (summary) ([1]; normal mice, iv): staining was observed in thalamus, midbrain, brain stem and hippocampus
